Measurements: patent US9962334B2, “Ophthalmic device having therapeutic agent delivery capability and method of forming same” (Novartis AG, priority 2008, dated 2018)

Conditions: soaking in BSS at 37° C.

CO[C@@]12[C@H](COC(N)=O)C3=C(C(=O)C(C)=C(N)C3=O)N1C[C@@H]1N[C@@H]12 [Mitomycin-C]
total MMC loaded into the lens remaining after 11 days: Approximately 20%
